# Reference: EP1144011B1, “PRODRUG COMPOUNDS AND PROCESS FOR PREPARATION THEREOF” (Coulter Pharmaceutical, Inc., priority 1998, dated 2000)
# Key:
# [1] = Acute toxicity after intravenous injection in mice; type: in vivo; settings: 174 µMol /ml
# Procedure: Many cytotoxic compounds inherently have low solubility. Positively charged anthracyclines for example form aggregates at high concentration and these aggregates induce intravenous coagulation when the aggregates are administered intravenously. We have discovered that trouase recognizes a specific set of hydrophobic peptide sequences. […] Since most peptides have exposed, positively-charged amino termini at physiological pH, these aggregates form a polypositively charged surface in vivo. […] This renders any positively charged prodrugs that are formulated with aggregate suspension unsuitable for therapeutic use.
# Several experiments support the hypothesis that aggregates are formed with peptide conjugated Doxorubicins. […] A solution to this aggregate problem makes these peptide prodrugs more practical. When these peptide prodrugs form aggregates because of insufficient solubility at the desired formulated concentrations, the stabilizing group on the peptide chain must terminate in a negatively charged or a neutral functionality. The use of succinyl as a stabilizing group on the peptide prodrug renders the produg not acutely toxic (see example 6). This solves an important problem in the use of peptide prodrugs as practical therapies for humans. […]
# [2] = Aggregation: filtration through Centricon filter units of different MWCO; type: physicochemical; settings: for 3000 MWCO Filt.: quantitated at λ475 nm
# [3] = 17.4 µMol/ml in distilled water, 2 hr at 1500g, passing through filter
# [4] = 17.4 µMol/ml in distilled water, 2 hr at 1500g, retained
structure (smiles),measurement,setting,value
"COc1cccc2c1C(=O)c1c(O)c3c(c(O)c1C2=O)C[C@@](O)(C(=O)CO)C[C@@H]3O[C@H]1C[C@H](NC(=O)[C@H](CC(C)C)NC(=O)[C@H](C)NC(=O)[C@H](CC(C)C)NC(=O)CCN)[C@H](O)[C@H](C)O1 [βAlaLeuAlaLeu-Dox, N-β-Ala-L-Leu-L-Ala-L-Leu-Doxorubicin]",Survival time,[1]; 1 hr pretreatment heparin i.p. 4000 I.U.,>9 days
same,Survival time,"[1]; Control (iv), heparin 0 I.U.",0 days
same,aggregate size (a significant percentage of aggregates),[2]; 17.4 µMol/ml aqueous solution,> 50 kD
same,3000 MWCO Filt.,[2]; [3],5%
same,3000 MWCO Filt.,"[2]; 17.4 µMol/ml in distilled water, 2 hr at 1500g, passing through filter, listed as Conj.",4.9%
same,10000 MWCO Filt.,[2]; [3],10%
same,30000 MWCO Filt.,[2]; [3],36%
same,50000 MWCO Filt.,[2]; [3],53%
same,3000 MWCO Ret.,[2]; [4],89%
same,10000 MWCO Ret.,[2]; [4],76%
same,30000 MWCO Ret.,[2]; [4],64%
same,50000 MWCO Ret.,[2]; [4],over 40%
same,50000 MWCO Ret.,"[2]; 17.4 µMol/ml in distilled water, 2 hr at 1500g, retained, listed as Conj.",43%
